Assays:
[1] = Evaluation of a conversion rate to 2-acetylnaphtho[2,3-b]furan-4,9-dione in human plasma; format: in vitro ADME; details: 1 umol/L, 37° C., incubation time 120 min
Procedure: For test compounds, the decrease rate of the test compounds and the conversion rate thereof to 2-acetylnaphtho[2,3-b]furan-4,9-dione in human plasma, CD1 mouse plasma, and pH 7.4 phosphate buffer solution were measured.
Test compounds were incubated at the concentration of 1 umol/L in human plasma (cat. no. 12250210, COSMO BIO), CD1 mouse plasma (cat. no. AP3054, KAC), and phosphate buffer solution at 37° C., and removed at predetermined times (0, 5, 10, 30, 60, and 120 minutes). After protein-removing treatment was performed, they are analyzed with LC-MS. It should be noted that the protein-removing treatment used acetonitrile containing: 10% volume of 1 mol/L hydrochloric acid; 1% volume of 46% citric acid; and phenytoin as an internal standard.
The measurement condition of LC-MS is as described below. LC-MS condition column: Kinetex 2.6 u PFP 100 A 50×2.1 mm Column temperature: 40° C. […]
Measurement values are calculated from the peak area ratio in LC-MS between an internal standard material, phenytoin and an active form, 2-acetylnaphtho[2,3-b]furan-4,9-dione, and are expressed in %.
In the same way as Example 6, the incubation time was set as 120 minutes later, and the conversion rate of each of various test compounds to 2-acetylnaphtho[2,3-b]furan-4,9-dione in human plasma, CD1 mouse plasma, and pH 7.4 phosphate buffer solution was measured. […]

Solubility test = details: 50 mmol/L glycine buffer solution (pH 2.0), room temperature, 24 hours shaking

CC(=O)c1cc2c(OC(=O)NCCNCC(F)F)c3ccccc3c(OC(=O)NCCNCC(F)F)c2o1.Cl.Cl [Example 44]
% Measurement value (conversion rate to 2-acetylnaphtho[2,3-b]furan-4,9-dione) [1]: 88%
Solubility in pH 2.0 buffer solution (Solubility test): >5.0 mg/mL

Reference: patent US10800752B2, “Substituted naphtho[2,3-b]furans as water-soluble prodrugs for preventing and/or treating cancer” (BOSTON BIOMEDICAL, INC., priority 2015, dated 2020)
